From ChEMBL document CHEMBL1152232, “Muscarinic acetylcholine receptor antagonists: SAR and optimization of tyrosine ureas” (Bioorg Med Chem Lett, 2008)

Amino acid sequences for entries named in this document (tags omitted). A change or cut given only in a name is not applied to a line headed by its entry.
UniProt P11229: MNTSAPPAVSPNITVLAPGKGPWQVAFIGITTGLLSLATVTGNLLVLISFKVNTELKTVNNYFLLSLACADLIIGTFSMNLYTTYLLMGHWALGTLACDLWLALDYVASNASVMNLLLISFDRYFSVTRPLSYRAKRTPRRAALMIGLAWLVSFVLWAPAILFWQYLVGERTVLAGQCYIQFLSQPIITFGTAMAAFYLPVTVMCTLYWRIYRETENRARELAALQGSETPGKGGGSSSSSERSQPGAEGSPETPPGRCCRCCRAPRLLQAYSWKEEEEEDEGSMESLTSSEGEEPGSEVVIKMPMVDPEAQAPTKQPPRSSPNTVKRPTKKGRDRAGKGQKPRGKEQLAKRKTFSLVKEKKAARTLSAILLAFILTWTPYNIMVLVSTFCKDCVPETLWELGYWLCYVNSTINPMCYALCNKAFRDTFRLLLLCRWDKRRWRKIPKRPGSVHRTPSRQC

Target: Muscarinic acetylcholine receptor M1 (Homo sapiens, UniProt P11229)
Test: Antagonist activity at human recombinant muscarinic M1 receptor expressed in CHO cells assessed as inhibition of acetylcholine-induced intracellular Ca2+ mobilization by FLIPR assay
Type: functional, cell-based
Details: read-out: pA2 (converted)

- Kb: 15.8 nM
Compound: CC(C)OC(=O)c1ccc(NC(=O)N[C@@H](Cc2ccc(O)cc2)C(=O)N[C@H]2CCC[N+](C)(Cc3cccc(O)c3)C2)cc1.[I-] (stereo partly specified)
